Measured values published in article PMC6930675, “Discovery and Characterisation of Dual Inhibitors of Tryptophan 2,3-Dioxygenase (TDO2) and Indoleamine 2,3-Dioxygenase 1 (IDO1) Using Virtual Screening” (Molecules, 2019).

Sequences of proteins named here, by UniProt entry; tags and fusion partners are left off. A change or cut given only in a name is not applied to a line headed by its entry.
UniProt P48775: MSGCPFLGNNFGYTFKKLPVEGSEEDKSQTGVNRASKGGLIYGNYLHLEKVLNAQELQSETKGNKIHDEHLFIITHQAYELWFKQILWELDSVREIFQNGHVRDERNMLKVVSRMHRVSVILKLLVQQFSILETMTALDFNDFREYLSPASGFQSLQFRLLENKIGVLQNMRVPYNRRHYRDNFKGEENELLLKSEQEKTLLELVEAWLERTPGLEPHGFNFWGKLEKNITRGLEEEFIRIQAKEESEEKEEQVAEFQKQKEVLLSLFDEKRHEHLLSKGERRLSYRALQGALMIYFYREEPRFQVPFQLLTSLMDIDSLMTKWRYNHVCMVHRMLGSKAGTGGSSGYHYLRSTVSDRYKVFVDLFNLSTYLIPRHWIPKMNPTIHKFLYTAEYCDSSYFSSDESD

Target: T1, TDO2 (A172 cells) (Homo sapiens, UniProt P48775)
T1 construct: identify cell lines endogenously expressing only IDO1, only TDO2, and both enzymes simultaneously; endogenous in cells; host or cells: A172 glioblastoma cell line
Assay: Cell based kynurenine assay in A172 glioblastoma line (TDO2 expressor)
Details: 18 h, read-out: IC50, inhibition of kynurenine secretion
Method: Breast cancer cell lines MCF7, MDA-MB-231, BT549, Hs578T; ovarian cell line SKOV3; glioblastoma cell line A172 and lung cancer cell line H460 were grown in α-MEMGibco, Grand Island, NY, USA; ThermoFisher catalogue number 12000022) containing 5% foetal calf serum (Moregate Biotech, Hamilton, New Zealand), insulin/transferrin/selenium supplement (Roche, Ref-11074547001), added according to the manufacturer’s instructions, as well as penicillin/streptomycin (100 U/mL and 100 μg/mL, respectively). The amount of kynurenine produced by the cells was measured as described previously. […] After spinning the plates for 20 min at 2500 g, the supernatants were mixed at a 1:1 ratio with 4-(dimethylamino)benzaldehyde (20 mg/mL in acetic acid; Sigma) and the absorbance was read at 480 nm on an EnSpire 2300 Multimode Plate Reader (Perkin-Elmer, Singapore, Singapore). […] After 1 h of incubation at 37 °C, the absorbance was measured at 440 nm. WST-1 is reduced on the outer membrane of viable cells to a soluble formazan by reducing equivalents such as NAD(P)H. The absorbance measured at 440 nm indicates the number of metabolically active cells in the culture and represents a surrogate marker of cell viability. […]

- IC50: 380 nM
Compound: Fc1ccc2c(/C=C\c3cccnc3)c[nH]c2c1 [680C91]
